In article PMC3698492 (Scientific Reports, 2013):

Test system: Drosophila 5-HT receptor mutant larvae
Assay: Liquid food feeding assay in 5-HT receptor mutant larvae
Type: in vivo, Drosophila melanogaster

In the case of `CSc1ccc2c(c1)C(N1CCN(C)CC1)Cc1ccccc1S2` (stereo not shown) [Metitepine], the “sensitivity to anorectic effect” value (100 μM, 5-HT2A^Gal4 receptor mutants) is reported as “resistant”, the “sensitivity to anorectic effect” value (100 μM, null mutants of 5-HT receptors other than 5-HT2A^Gal4) is reported as “sensitive to metitepine” and the “sensitivity to anorectic effect” value (5-HT2A^PL homozygous mutants) is reported as “insensitive”. For the same compound, the “sensitivity to anorectic effect” value (5-HT2A^e01363 (5-HT2A^e) homozygote) was “sensitive”, the “sensitivity to anorectic effect” value (heteroallelic mutant 5-HT2A^Gal4/PL) was “insensitive” and the “sensitivity to anorectic effect” value (heteroallelic mutant 5-HT2A^Gal4/e) was “insensitive”. For the same compound, the “sensitivity to anorectic effect” value (heterozygous 5-HT2A^Gal4 larvae) was “normal sensitivity”.
